According to patent US7989466B2, “Methods to inhibit or augment an inflammatory response” (Cambridge Enterprise Limited, priority 1999, dated 2011):

Key:
[1] = test system: TGFβ1 induced THP-1 migration; experiment: THP-1 trans-well migration assay, TGFβ1 as non-chemokine control; type: cell-based, human; conditions: n.s. = no statistically significant inhibition (p > 0.05)
Experimental: Any method suitable for counting cells can be used, for example, counting with a hemocytometer, incubation of the cells with MTT (see above), or FACS analysis. A negative control assay is also performed, using TGF-β or another non-chemokine chemoattractant (e.g., IL1β or TNFα). To assess whether the agent is cytotoxic, the same concentrations of agent are incubated with THP-1 cells. Agents which 1) are not cytotoxic at levels which inhibit migration, 2) are ineffective at inhibiting the negative control-induced migration, and 3) reduce or inhibit chemokine-induced THP-1 migration, are agents which fall within the scope of the invention.
Chemotaxis was induced in a 96-well disposable chemotaxis chamber fitted with a […] polycarbonate filter (PVP free, ChemoTX, Neuroprobe Inc., Cabin John). […] The framed filter was aligned with the holes in the corner of the filter frame and placed over the wells. […] Peptides were dissolved in Milli Q water and then serially diluted in culture medium. In most cases, the serially diluted peptides were added to the upper compartment of the chemotaxis chamber. The chamber was incubated at 37° C. in a humidified atmosphere of 5% CO2 for 4 hours.
After incubation, the cells were gently removed from the top of the filter with a pipette, 20 μl of 20 mM EDTA in PBS was added into each top well, and the mixture was incubated for 20 minutes at 4° C. […]

[2] = test system: MCP-1 induced THP-1 migration; experiment: THP-1 trans-well migration assay, MCP-1 as chemoattractant; type: cell-based, human; conditions: agent with the cells in the upper compartment; n.s. = no statistically significant inhibition (p > 0.05); read-out: ED50 versus MCP-1, inhibition of THP-1 migration
Experimental: (§1) To determine whether an agent inhibits a chemokine-induced activity, such as macrophage recruitment, varying amounts of the agent are mixed with cells in the presence of a known chemoattractant. For example, a range of known concentrations of an agent, e.g., a chemokine peptide, is incubated with a defined number (e.g., 10^4-10^6) of human THP-1 monocyte cells in individual wells of the top compartment of a trans-well plate. Chemokine (such as MCP-1, MIP1α, IL8 or SDF-1α), at a concentration known to cause significant migration of THP-1 cells in the trans-well migration assay, is placed in the lower compartment (FIG. 1). […] A standard curve consisting of a two-fold dilution series of THP-1 cells (in 29 μl) is prepared to accurately quantify the number of cells that have migrated. […] Absorbance of converted dye is measured at a wavelength of 595 nm using an ELISA plate reader. The number of migrated cells in each well is then determined by interpolation of the standard curve (see also Imai et al., J. Biol. Chem., 272, 15036 (1997)). […]
(§2) After incubation, the cells were gently removed from the top of the filter with a pipette, 20 μl of 20 mM EDTA in PBS was added into each top well, and the mixture was incubated for 20 minutes at 4° C. […] A standard curve was prepared to accurately quantify the number of THP-1 cells that had migrated. […]

[3] = target: T1, Duffy Antigen Receptor for Chemokines (DARC) (Homo sapiens, UniProt Q16570); experiment: DARC binding: competition with 125I-MCP-1 on red blood cells; conditions: for DUFFY SELECTIVITY (DARC specificity ratio): estimated ka for binding to red blood cells divided by average inhibitory ED50 versus each of the chemokines
T1 sequence (Q16570 1-336): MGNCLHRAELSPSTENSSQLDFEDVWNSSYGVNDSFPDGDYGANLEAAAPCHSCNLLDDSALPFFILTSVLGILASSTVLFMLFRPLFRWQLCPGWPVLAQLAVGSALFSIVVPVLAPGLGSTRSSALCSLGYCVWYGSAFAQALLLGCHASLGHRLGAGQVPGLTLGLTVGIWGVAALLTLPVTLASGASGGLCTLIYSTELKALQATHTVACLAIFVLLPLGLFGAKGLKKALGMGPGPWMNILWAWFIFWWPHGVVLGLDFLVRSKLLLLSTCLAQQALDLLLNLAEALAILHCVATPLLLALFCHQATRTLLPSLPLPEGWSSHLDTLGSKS

[4] = test system: RANTES induced THP-1 migration; experiment: THP-1 trans-well migration assay, RANTES as chemoattractant; type: cell-based, human; conditions: mean of at least two determinations; read-out: ED50 versus RANTES, inhibition of THP-1 migration
Experimental: as §1, §2

[5] = test system: chemokine-induced THP-1 migration; experiment: THP-1 trans-well migration assay, panel of chemokines (MCP-1, MIP1α, IL-8, SDF1α); type: cell-based, human; conditions: average inhibitory ED50 versus SDF1 and IL8 divided by average inhibitory ED50 versus MCP-1 and MIP1α
[6] = test system: SDF-1α induced THP-1 migration; experiment: THP-1 trans-well migration assay, SDF-1α as chemoattractant; type: cell-based, human; conditions: n.s. = no statistically significant inhibition (p > 0.05); read-out: ED50 versus SDF-1α, inhibition of THP-1 migration
Experimental: as §1, §2

[7] = test system: IL8 induced THP-1 migration; experiment: THP-1 trans-well migration assay, IL-8 as chemoattractant; type: cell-based, human; conditions: n.s. = no statistically significant inhibition (p > 0.05); read-out: ED50 versus IL8, inhibition of THP-1 migration
Experimental: as §1, §2

Structure (SMILES): CC(C)[C@H](NC(=O)[C@@H](N)Cc1c[nH]c2ccccc12)C(=O)N[C@@H](CCC(N)=O)C(=O)O [WVQ]
- ED50 versus TGFβ1, inhibition of THP-1 migration [1]: n.s.
- EC50 [2]: 8 µM
- Kd [3]: 2 µM
- DUFFY SELECTIVITY (DARC specificity ratio) [3]: 10
- DUFFY SELECTIVITY (DARC specificity ratio) ([3]; listed as Pep3[10-12]): 24.81
- EC50 [4]: 1.5 µM
- CC SPECIFICITY [5]: 1.1
- EC50 [6]: < 1 µM and 2 µM
- EC50 [7]: < 1 µM and 1 µM

Where “and” joins values, the source holds several entries; their conditions need not be identical. Equal entries are not always repeated.
